## Exposed polarity of cyclic peptides

Values of Bockus et al. 2015, doi:10.1021/acs.jmedchem.5b00128, as listed in CycPeptMPDB.

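Conditions beyond the assay type are not listed; see the original paper. The list need not hold all peptides of the study.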

EPSA reports exposed polarity as measured by chromatography; lower is less polar.

CC(C)C[C@@H]1NC(=O)[C@H](Cc2ccc(O)cc2)N(C)C(=O)[C@H]2CCCN2C(=O)[C@H](CC(C)C)NC(=O)[C@H](CC(C)C)N(C)C(=O)[C@@H](CC(C)C)N(C)C1=O has EPSA 77 Å2. The entry for CC(C)C[C@@H]1NC(=O)[C@H]2CCCN2C(=O)[C@H](CC(C)C)N(C)C(=O)C[C@@H](O)[C@@H](CC(C)C)NC(=O)[C@H](CC(C)C)N(C)C(=O)[C@H](CC(C)C)N(C)C(=O)C[C@@H]1O lists EPSA 57 Å2. The entry for CC(C)C[C@@H]1NC(=O)[C@@H](CC(C)C)N(C)C(=O)[C@H](CC(C)C)N(C)C(=O)C[C@H](O)[C@H](CC(C)C)NC(=O)[C@H]2CCCN2C(=O)[C@H](CC(C)C)N(C)C(=O)C[C@@H]1O lists EPSA 62 Å2. Listed for CC(C)C[C@@H]1NC(=O)[C@H]2CCCN2C(=O)[C@@H](CC(C)C)N(C)C(=O)C[C@@H](O)[C@@H](CC(C)C)NC(=O)[C@@H](CC(C)C)N(C)C(=O)[C@@H](CC(C)C)N(C)C(=O)C[C@@H]1O: EPSA 61 Å2.

The entry for CC(C)C[C@@H]1NC(=O)[C@H]2CCCN2C(=O)[C@H](CC(C)C)N(C)C(=O)C[C@H](O)[C@H](CC(C)C)NC(=O)[C@H](CC(C)C)N(C)C(=O)[C@H](CC(C)C)N(C)C(=O)C[C@@H]1O lists EPSA 61 Å2. Listed for C/C1=C\[C@@H](CC(C)C)NC(=O)[C@@H]2CCCN2C(=O)[C@@H](CC(C)C)N(C)C(=O)C[C@H](O)[C@H](CC(C)C)NC(=O)[C@@H](CC(C)C)N(C)C(=O)[C@@H](CC(C)C)N(C)C1=O: EPSA 57 Å2. The entry for C/C1=C\[C@@H](CC(C)C)NC(=O)[C@@H]2CCCN2C(=O)[C@H](CC(C)C)N(C)C(=O)C[C@@H](O)[C@@H](CC(C)C)NC(=O)[C@H](CC(C)C)N(C)C(=O)[C@H](CC(C)C)N(C)C1=O lists EPSA 56 Å2. CC(C)C[C@@H]1NC(=O)[C@H](CC(C)C)N(C)C(=O)[C@H](CC(C)C)N(C)C(=O)C[C@H](O)[C@H](CC(C)C)NC(=O)[C@@H]2CCCN2C(=O)[C@H](CC(C)C)N(C)C(=O)C[C@@H]1O has EPSA 55 Å2.

The entry for CC(C)C[C@@H]1NC(=O)[C@H]2CCCN2C(=O)[C@H](CC(C)C)N(C)C(=O)C[C@H](O)[C@H](CC(C)C)NC(=O)[C@H](CC(C)C)N(C)C(=O)[C@@H](CC(C)C)N(C)C(=O)C[C@@H]1O lists EPSA 57 Å2.